Experimental data as given in PMC9652212 (Clinical Pharmacokinetics, 2022).

Type: in vivo, human

## OCc1ncc2n1-c1ccc(Cl)cc1C(c1ccccc1F)=NC2 [1’-OH-MDZ, 1’-hydroxymidazolam]
Interindividual variability
  IIV of 1’-OH-MDZ volume of distribution: 39.9 %CV
Population estimate after metabolic conversion of MDZ
  1’-OH-MDZ volume of distribution: 300 L
